The values below are quoted from earlier work in patent US20240197683A1 (JIANGSU UNIVERSITY, priority 2023, published 2024).

Where a name gives a salt, the structure may show the parent alone.

For this data set the following is noted: cited from earlier work.

Take `C[N+](C)(C)[C@@H](Cc1c[nH]c(=S)[nH]1)C(=O)[O-]` [ergothioneine, (S)-α-Carboxy-N,N,N-trimethyl-2-mercapto-1H-imidazole-4-ethanaminium inner salt]: the Solubility result was “soluble in water, methanol and ethanol”.
